Experimental findings from ChEMBL document CHEMBL3259678, “Oxathiazolones Selectively Inhibit the Human Immunoproteasome over the Constitutive Proteasome” (ACS Med Chem Lett, 2014) are described below.

The target of this assay is T1, Proteasome subunit beta type-8 (Homo sapiens) (UniProt P28062).
T1 sequence (whole entry): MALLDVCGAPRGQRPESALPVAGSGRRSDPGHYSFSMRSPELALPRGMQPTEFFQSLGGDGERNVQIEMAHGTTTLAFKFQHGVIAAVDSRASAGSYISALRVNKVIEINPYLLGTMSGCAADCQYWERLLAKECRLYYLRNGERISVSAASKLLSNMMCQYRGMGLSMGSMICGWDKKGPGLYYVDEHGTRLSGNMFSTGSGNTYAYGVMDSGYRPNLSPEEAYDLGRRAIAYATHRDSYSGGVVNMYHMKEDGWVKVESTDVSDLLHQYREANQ
The assay is described as follows: Inhibition of immunoproteasome-20S subunit beta5i in human PBMC assessed as substrate hydrolysis using suc-LLVY-AMC as substrate by fluorescence analysis. Conditions: TDE = time-dependent effect. The essentials:
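Purified human i-20S preincubated with inhibitor for 15 min before suc-LLVY-AMC was added; inhibitor ranged from 9.8 nM to 100 μM. AMC fluorescence release read. IC50 from the concentration–response; where β2i/β1i inhibition exceeded 80% at 100 μM, IC50 was also determined.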

Each structure is given as a SMILES string.

Turning to `O=c1oc(-c2ccc(-c3ccccc3)cc2)ns1`, the inhibition entry was “tde”.
